Only a part is listed here, and it is no random draw. Some structures show a salt or complex split into parts, the way the source records it. The source made the active and inactive calls.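 The calls were made as follows: active = percent inhibition above a cutoff equal to the mean of all tested compounds plus 3 SD (cut at about 15% in these data); inactive = the rest.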

Chains of the proteins cited; added tags and fusions are not shown.
UniProt Q9UM07, whole entry: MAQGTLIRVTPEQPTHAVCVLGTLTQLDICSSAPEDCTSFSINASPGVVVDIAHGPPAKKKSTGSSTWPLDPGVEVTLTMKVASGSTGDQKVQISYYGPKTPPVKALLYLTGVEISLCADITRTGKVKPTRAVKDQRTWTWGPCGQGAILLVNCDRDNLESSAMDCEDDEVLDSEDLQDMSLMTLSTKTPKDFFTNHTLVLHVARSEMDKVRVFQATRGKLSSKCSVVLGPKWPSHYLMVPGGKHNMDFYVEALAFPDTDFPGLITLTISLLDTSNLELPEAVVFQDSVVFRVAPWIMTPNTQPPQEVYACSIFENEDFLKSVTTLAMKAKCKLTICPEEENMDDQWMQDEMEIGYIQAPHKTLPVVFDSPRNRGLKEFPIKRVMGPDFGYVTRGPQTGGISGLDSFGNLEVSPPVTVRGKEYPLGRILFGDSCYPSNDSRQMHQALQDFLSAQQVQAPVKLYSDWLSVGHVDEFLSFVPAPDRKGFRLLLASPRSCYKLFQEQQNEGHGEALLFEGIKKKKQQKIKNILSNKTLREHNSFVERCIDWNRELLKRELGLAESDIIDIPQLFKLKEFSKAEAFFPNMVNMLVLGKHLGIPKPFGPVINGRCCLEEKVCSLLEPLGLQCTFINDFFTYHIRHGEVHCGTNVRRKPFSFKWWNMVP

For this experiment, the target named is Protein-arginine deiminase type-4 (Homo sapiens) (UniProt Q9UM07). In words: human PAD4 inhibitors, primary screen, biochemical, fluorescence polarization, 1536-well format (AID 485272).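 Also: 0% = PAD4 with RCA probe and DMSO and 100% = probe without PAD4.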 The settings on record: recombinant PAD4, RCA probe fluorescence polarization; at 6.36 µM; stronger effect = higher value. (In general: In fluorescence polarisation assays a small probe gives low polarisation when free and higher when bound to something large.)
As usually defined, the inhibition is the relative decrease from the control value, in per cent. With `COc1ccccc1OP(C)(=O)Nc1c(C)cccc1C` (configuration not stated), the inhibition was inactive: 1.21%. Take `CN1CCCCC1COC(=O)C1(O)c2ccccc2CCc2ccccc21` (configuration not stated): the inhibition is inactive: 0.6%. Under `CP(=O)(Nc1ccc(SC(F)(F)F)cc1)Oc1ccccc1` (configuration not stated) stands inactive: 2.93%.

In the case of `O=[N+]([O-])c1cc([N+](=O)[O-])c(Nc2nnnn2CCO)c([N+](=O)[O-])c1`, the inhibition is inactive: -1.6%. The result for `CC1=C2N=C(C=C3N=C(C(C)=C4[N-][C@@](C)([C@@H]5N=C1[C@](C)(CCC(=O)NC[C@@H](C)OP(=O)([O-])O[C@H]1[C@@H](O)[C@@H](n6cnc7cc(C)c(C)cc76)O[C@@H]1CO)[C@H]5CC(N)=O)[C@@](C)(CC(N)=O)[C@@H]4CCC(N)=O)[C@@](C)(CC(N)=O)[C@@H]3CCC(N)=O)C(C)(C)[C@@H]2CCC(N)=O.[C-]#N.[Co+3]` reads active: 27.8%; that for `CCOC(=O)C(CC)C1=NC(C)(C)Cc2ccccc21.O=[N+]([O-])c1cc([N+](=O)[O-])c(O)c([N+](=O)[O-])c1` (configuration not stated), inactive: 0.52%. The result for `O=[N+]([O-])c1cc([N+](=O)[O-])c(-c2cnn(-c3ccccc3)c2)c([N+](=O)[O-])c1` reads inactive: -1.45%. Take `Cc1nc2ccc3ccccc3c2s1.O=[N+]([O-])c1cc([N+](=O)[O-])c(O)c([N+](=O)[O-])c1`: the inhibition is inactive: -1.58%. The result for `O=[N+]([O-])c1cc([N+](=O)[O-])c(-n2nnc3ccccc32)c([N+](=O)[O-])c1` reads inactive: -3.88%; that for `Cc1ccc(C)c(NP(C)(=O)Oc2ccccc2)c1` (configuration not stated), inactive: -1.36%.

Take `CP(=O)(Nc1cccc(Br)c1)Oc1ccccc1` (configuration not stated): the inhibition is inactive: -2.61%. The result for `Cc1cc(C)cc(OP(C)(=O)Nc2ccccn2)c1` (configuration not stated) reads inactive: -3.07%; that for `COc1ccccc1OP(C)(=O)Nc1cccc(Br)c1` (configuration not stated), inactive: 3.16%; that for `CCOC(=O)c1ccc(NP(C)(=O)Oc2cc(C)cc(C)c2)cc1` (configuration not stated), inactive: 3.23%. The result for `Cc1cc(C)cc(OP(C)(=O)Nc2ccc(C)cc2C)c1` (configuration not stated) reads inactive: 3.09%; that for `CC1=NCCc2c1[nH]c1ccccc21.O=[N+]([O-])c1cc([N+](=O)[O-])c(O)c([N+](=O)[O-])c1`, inactive: 0.26%; that for `O=C(O)c1cccc(Nc2c([N+](=O)[O-])cc([N+](=O)[O-])cc2[N+](=O)[O-])c1`, inactive: -2.24%. Under `COc1ccccc1OP(C)(=O)Nc1ccc(C)cc1` (configuration not stated) stands inactive: 4.1%. For `Cc1ccc(NP(C)(=O)Oc2ccccc2)c(C)c1` (configuration not stated), the inhibition is inactive: 1.63%.

With `CCOC(=O)c1ccc(NP(C)(=O)Oc2ccccc2)cc1` (configuration not stated), the inhibition is inactive: 0.92%. `Cc1cc(C)cc(OP(C)(N)=O)c1` (configuration not stated): the inhibition was inactive: -7.81%. The result for `COc1ccccc1OP(C)(=O)Nc1cc(Cl)ccc1C` (configuration not stated) reads inactive: -1.83%; that for `COc1ccc(OP(C)(=O)Nc2cccc(F)c2)cc1` (configuration not stated), inactive: 2.37%; that for `O=[N+]([O-])c1cc([N+](=O)[O-])c(Nc2cccnc2)c([N+](=O)[O-])c1`, inactive: -13.1%. Under `O=[N+]([O-])c1ccc2c(c1)C=Nc1ccccc1O2` stands inactive: 9.97%. With `CC(C)(C)c1ccc(OP(C)(=O)Nc2ccc(SC(F)(F)F)cc2)cc1` (configuration not stated), the inhibition was inactive: -0.75%. Under `Cc1cccc(C)c1OP(C)(N)=O` (configuration not stated) stands inactive: -3.65%; under `CCN(CC)CCCOC(=O)C(O)(c1ccccc1)c1ccccc1`, inactive: 1.21%. Under `CCOC(=O)c1ccc(NP(C)(=O)Oc2ccc(OC)cc2)cc1` (configuration not stated) stands inactive: -0.27%; under `O=[N+]([O-])c1cc([N+](=O)[O-])c(O)c([N+](=O)[O-])c1.c1ccc(Oc2ccncc2)cc1`, inactive: -7.21%. For `CCOP(C)(=S)SCC(=O)NC(C)C(=O)O` (configuration not stated), the inhibition was inactive: -3.05%. The result for `CP(=O)(Nc1ccccn1)Oc1ccc(Cl)cc1` (configuration not stated) reads inactive: 2.31%; that for `Cc1cccc(C)c1OP(C)(=O)Nc1ccc(SC(F)(F)F)cc1` (configuration not stated), inactive: 0.79%. The result for `CP(=O)(Nc1ccc(SC(F)(F)F)cc1)Oc1ccc(Cl)cc1` (configuration not stated) reads inactive: 4.56%; that for `CP(=O)(Oc1ccccc1)OC(c1ccccc1)C(F)(F)F` (configuration not stated), inactive: -3.65%. `CCc1ccc(OP(C)(=O)N2CCN(c3ccc([N+](=O)[O-])cc3)CC2)cc1` (configuration not stated): the inhibition was inactive: 2.29%. For `CP(=O)(NC(=O)Nc1ccccc1)Oc1ccccc1` (configuration not stated), the inhibition was inactive: 2.37%. With `Cc1cc(C)cc(OP(C)(=O)Nc2ccc(SC(F)(F)F)cc2)c1` (configuration not stated), the inhibition was inactive: 0.39%. Under `CP(=S)(Nn1cnnc1)Oc1ccccc1` (configuration not stated) stands inactive: -2.51%; under `CP(=O)(Nc1ccccc1Br)Oc1ccccc1` (configuration not stated), inactive: -3.46%.

With `COc1ccccc1OP(C)(=O)Nc1ccccc1` (configuration not stated), the inhibition is inactive: -3.92%. Consider `Nc1ccc2c(ccc3cccnc32)n1.O=[N+]([O-])c1cc([N+](=O)[O-])c(O)c([N+](=O)[O-])c1`, for which the inhibition was inactive: 2.47%.

On to `CCOC(=O)c1ccc(NP(C)(=O)Oc2ccc(Cl)cc2)cc1` (configuration not stated), for which the inhibition was inactive: 1.99%. Turning to `CP(=O)(OC12CC3CC(CC(C3)C1)C2)OC12CC3CC(CC(C3)C1)C2`, the inhibition was inactive: 14.6%. The result for `CC(C)(C)c1ccc(OP(C)(=O)O)cc1` reads inactive: 6.4%. The result for `COc1ccccc1OP(C)(=O)Nc1ccccc1Br` (configuration not stated) reads inactive: -0.17%; that for `CP(=O)(Nc1ccc(Cl)cc1)Oc1ccc(F)cc1` (configuration not stated), inactive: 0.33%. In the case of `CN(C)C(=O)c1c([N+](=O)[O-])cc([N+](=O)[O-])cc1[N+](=O)[O-]`, the inhibition was inactive: -12%. For the molecule `CCN(CC)CC(O)COC(=O)C(O)(c1ccccc1)C1CCCCC1` (configuration not stated), the inhibition was inactive: -2.75%. The result for `COc1ccc(OP(C)(=O)Nc2ccc(Br)cc2)cc1` (configuration not stated) reads inactive: 2.47%; that for `COc1ccccc1OP(C)(=O)Nc1c(C)n(C)n(-c2ccccc2)c1=O` (configuration not stated), inactive: 0.48%. For `O=C(OCCCN1CCCC1)C(O)(c1ccccc1)C1CCCCC1` (configuration not stated), the inhibition is inactive: 4.23%. As to `CP(=O)(Oc1ccccc1)N1CCOC1=O` (configuration not stated), the inhibition is inactive: -9.26%. The result for `CCc1ccc(OP(C)(=O)Nc2cccnc2)cc1` (configuration not stated) reads inactive: -3.7%. `O=[N+]([O-])c1cc([N+](=O)[O-])c(Nc2ccccn2)c([N+](=O)[O-])c1`: the inhibition was active: 31.7%.

Turning to `Cc1c(NP(C)(=O)Oc2ccc(C(C)C)cc2)c(=O)n(-c2ccccc2)n1C` (configuration not stated), the inhibition is inactive: -3.04%. Regarding `CP(=O)(Nc1ccccn1)Oc1ccccc1` (configuration not stated), the inhibition was inactive: -3.15%. The result for `COc1ccccc1OP(C)(=O)Nc1ccc(C)cc1C` (configuration not stated) reads inactive: 4.1%; that for `CCc1ccc(OP(C)(=O)O)cc1`, inactive: -2.83%. The result for `COc1ccccc1OP(C)(=O)Nc1ccc(Br)cc1` (configuration not stated) reads inactive: -5.46%; that for `COc1ccc(OP(C)(=O)Nc2ccccn2)cc1` (configuration not stated), inactive: -0.07%; that for `CN(C)CCOC(=O)C(O)(c1ccccc1)C1CCCC1` (configuration not stated), inactive: -0.13%. For the molecule `Cc1nc2ccc3ccccc3c2o1.O=[N+]([O-])c1cc([N+](=O)[O-])c(O)c([N+](=O)[O-])c1`, the inhibition is inactive: -10.5%. Consider `CP(=O)(OCCOc1ccccc1)OCCOc1ccccc1`, for which the inhibition is inactive: -4.44%. The result for `CP(=O)(Nc1ccc(Cl)cc1Cl)Oc1ccccc1` (configuration not stated) reads inactive: -1.26%; that for `Cc1cc(C)cc(OP(C)(=O)Nc2cccc(C(F)(F)F)c2)c1` (configuration not stated), inactive: 0.05%.

As for `COc1ccccc1OP(C)(=O)Nc1ccc(C)c(C)c1` (configuration not stated), the inhibition is inactive: -3.98%. Consider `COc1ccc(OP(C)(=O)Nc2ccccc2Br)cc1` (configuration not stated), for which the inhibition is inactive: 1.05%. As to `CCN(CC)CCCOC(=O)C(O)(c1ccccc1)C1CCCCC1` (configuration not stated), the inhibition was inactive: -1.45%. Under `CP(=O)(Nc1ccccc1)Oc1ccc(F)cc1` (configuration not stated) stands inactive: -0.53%. Under `O=[N+]([O-])c1cc([N+](=O)[O-])c(OC2CCCCC2O)c([N+](=O)[O-])c1` (configuration not stated) stands inactive: -0.17%; under `CCCCCOc1ccc(NP(C)(=O)Oc2ccc(Cl)cc2Cl)cc1` (configuration not stated), inactive: -0.75%; under `CCOC(=O)c1ccc(NP(C)(=O)Oc2ccc(F)cc2)cc1` (configuration not stated), inactive: 3.36%. As to `COc1ccc(OP(C)(=O)Nc2ccc(SC(F)(F)F)cc2)cc1` (configuration not stated), the inhibition was inactive: -0.42%. The result for `O=C(OC1CN2CCC1CC2)c1ccc([N+](=O)[O-])cc1` (configuration not stated) reads inactive: -2.83%; that for `O=C(OCCN1CCN(CCOCc2ccccc2)CC1)C(O)(c1ccccc1)c1ccccc1`, inactive: -3.74%; that for `COc1ccc2c(c1O)-c1c(O)c(OC)cc3c1[C@H](C2)[N+](C)(C)CC3.O=[N+]([O-])c1cc([N+](=O)[O-])c([O-])c([N+](=O)[O-])c1[O-]`, inactive: -3.57%. Under `CP(=O)(Nc1ccccc1F)Oc1ccccc1` (configuration not stated) stands inactive: 3.62%.

Turning to `CC(C)c1ccc(OP(C)(=O)Nc2ccc(SC(F)(F)F)cc2)cc1` (configuration not stated), the inhibition was inactive: 2.01%.

For `CP(=O)(Nc1ccc2c(c1)OCCO2)Oc1ccccc1` (configuration not stated), the inhibition was inactive: 0.13%. With `Cc1ccccc1NP(C)(=O)Nc1ccccc1C`, the inhibition was inactive: -0.06%.

Take `CP(=O)(Nc1ccc(SC(F)(F)F)cc1)Oc1ccc(F)cc1` (configuration not stated): the inhibition is inactive: -1.59%. With `CCOP(C)(=S)SCC(=O)NC(C)(CC)C(=O)O` (configuration not stated), the inhibition was inactive: 0.37%. The result for `O=[N+]([O-])c1cc([N+](=O)[O-])c(NCC2CCS(=O)(=O)C2)c([N+](=O)[O-])c1` (configuration not stated) reads inactive: -4.67%. The result for `COc1ccc(OP(C)(=O)Nc2cccc(Br)c2)cc1` (configuration not stated) reads inactive: 3.42%.

As to `CN(C)CCOC(=O)C(O)(c1ccccc1)C1CCCCC1` (configuration not stated), the inhibition is inactive: -2.76%. For `COc1ccc(NP(C)(=O)Oc2ccccc2OC)cc1` (configuration not stated), the inhibition is inactive: 1.88%.

Values taken from PubChem BioAssay AID485272 (The Scripps Research Institute Molecular Screening Center, 2010).
